Screening data: PubChem BioAssay, National Center for Advancing Translational Sciences (NCATS)
Most compounds without a hit are left out; they make up all but 0.67% or so of the library.
S-ASM inh: human S-ASM enzyme inhibition | P17405 | placental ASM, HMU-PC fluorogenic substrate, 60 min | Potency, µM (titrated, usually from 57.5 µM), for the others: at the top dose activity change, negative = inhibition, usual class: inhibitors | actives 0.006% (n = 340,000); active = well fitted inhibition curve with a large enough effect; inconclusive = small, poorly fitted or top-dose-only effect; inactive = no such curve, though single readings can be large or run the other way
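Fluorescence read-out (Ex 386 nm, Em 447 nm) after stopping the reaction at pH 10. Enzyme: ASM from human placenta; substrate HMU-PC0, 9 uM final; 60 min, 37 °C. Compound preincubation 10 min, ambient temperature.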
Rango release inh: inhibition of RanGTP-driven Rango-importin beta dissociation; AID 540253; Biochemical FRET Rango-importin beta, RanGTP-induced dissociation; actives 0.071% (n = 340,000); Potency, µM (titrated, usually from 46.1 µM), for the others: at the top dose activity change, negative = inhibition; O95149+P62826; also: % of control where 0% means no effect; nearly all actives have a fitted effect of over 45% in size
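Rango FRET biosensor (snurportin-1 IBB flanked by N-terminal EYFP and C-terminal CFP10) at 0.1 uM, with 0.25 uM importin beta in PBS, 1mM DTT, 0.02% Tween-20, 0.1% BSA. 0.6 uM Ran, 2mM GTP and 0.2 uM RCC1 were then added for 45 min at room temperature. Inhibition read as loss of FRET rise.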
gsp antagonist: antagonizes gsp, the McCune-Albright syndrome mutation | Potency, µM (doses to about 76.9 µM), inactives show top-dose activity change, negative = inhibition, usual class: inhibitors | AID 624288 | actives 0.4% (n = 340,000) | gsp-mutant cells, cAMP HTRF, 30 min; calls by dose curve; cell line not stated here;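 also: intracellular cAMP measured with PDE inhibitor Ro 20-1724 present during compound exposure; % is scaled to controls: 0 for no effect and ±100 for the full control effect; nearly all actives have a fitted effect of over 65% in size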
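Cells in G418 medium, seeded 16-24 h, 37C; buffer exchange to DPBS + 1 mM CaCl2, 0.5 mM MgCl2, 0.05% BSA; cpds in DMSO + […] (300 uM stock), 30 min 37C; HTRF cAMP detection.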
gsp agonist: activates gsp, the McCune-Albright syndrome mutation | gsp mutant cells, cAMP HTRF, 30 min | AID 624287 | Potency, µM (highest dose often 76.9 µM), for the others: at the top dose activation (cAMP increase), actives largely listed as activators | actives 0.13% (n = 340,000); active = well fitted activation curve with a large enough effect; inconclusive = small, poorly fitted or top-dose-only effect, or another doubt; inactive = no such curve, though single readings can be large or run the other way; cell line not stated here;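 also: phosphodiesterase inhibitor Ro 20-1724 added with compounds to block cAMP breakdown; nearly all actives have a fitted effect of over 60% in size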
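Cells in DMEM/10% FBS with G418 were pretreated with compounds in DMSO plus […] (300 uM stock) for 30 min at 37C. cAMP was measured by HTRF (cAMP-d2 plus anti-cAMP antibody-K) after 30 min at room temperature.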
Rango complex inh: Rango-importin beta binding inhibition. Rango CFP/YFP FRET sensor + importin beta, 45 min. Potency, µM (top dose mostly 92.2 µM), for the others: at the highest dose inhibition of complex formation. actives 0.031% (n = 340,000). AID 540263;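 also: 0% = DMSO wells and 100% = buffer wells lacking importin beta; nearly all actives have a fitted effect of over 15% in size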
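Inhibition scored from the CFP 486 nm/YFP 530 nm FRET ratio 45 min after adding 0.125 microM importin beta to 50 nM Rango biosensor preincubated 5 min with compound (room temperature, PBS with DTT, Tween-20, BSA). No-importin wells as positive control.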
* marks the source's active call; other numbers are inactive results; [ ] = dose if it differs, or a comment. Unless noted, calls follow the shape of the full dose curve. Potency is read from the fitted curve at half-maximal effect.

`CCOC(=O)C1CCCN(C(=O)c2ccc3c(c2)N(C)C(=O)/C(=C/c2ccccc2Cl)S3)C1` (stereo not drawn) gave S-ASM inh -2%, Rango release inh -19%, gsp antagonist 11µM*, gsp agonist -19% and Rango complex inh -4%.
Screening CN1C(=O)/C(=C/c2ccccc2Cl)Sc2ccc(C(=O)N3CCCC3)cc21 returned S-ASM inh -6%, Rango release inh 0%, gsp antagonist 32µM*, gsp agonist 1% and Rango complex inh 0%.
`CCCn1c(N)c(C(=O)COC(=O)COc2ccc(Cl)c(C)c2)c(=O)n(C)c1=O` gave S-ASM inh -11%, Rango release inh 1%, gsp antagonist 3%, gsp agonist -2%[15.4 µM] and Rango complex inh 0%.
Screening CCCn1c(N)c(C(=O)COC(=O)c2c(C)noc2C)c(=O)n(C)c1=O returned S-ASM inh -1%, Rango release inh -21%, gsp antagonist 8%, gsp agonist 5µM* and Rango complex inh 1%.
Screening COc1ccc(-c2cc(C)no2)cc1S(=O)(=O)NCCCN1CCCCCC1 returned S-ASM inh -2%, Rango release inh 7%, gsp antagonist 4%, gsp agonist inconclusive and Rango complex inh 0%.
For CCOc1ccc(C2C(C#N)=C(N)SC(N)=C2C#N)cc1OCC the results were S-ASM inh 0%, Rango release inh inconclusive, gsp antagonist 17%, gsp agonist inconclusive and Rango complex inh inconclusive.
`N#CC1=C(N)SC(N)=C(C#N)C1c1cccc(Oc2ccccc2)c1` gave S-ASM inh -9%, Rango release inh inconclusive, gsp antagonist 28µM*, gsp agonist 25% and Rango complex inh 6%.
`O=C(OCC(O)C(O)C(O)C(SCc1ccccc1)SCc1ccccc1)c1ccccc1` (stereo not drawn) gave S-ASM inh -25%, Rango release inh 1%, gsp antagonist -12%, gsp agonist -9% and Rango complex inh 0%.
`O=[N+]([O-])c1ccc(-c2cnc(SC(c3ccccc3)c3ccccc3)[nH]2)cc1` gave S-ASM inh -13%, Rango release inh inconclusive, gsp antagonist 35µM*, gsp agonist -6%[15.4 µM] and Rango complex inh inconclusive.
CC(C(=O)O)n1cc(C#N)c(=O)[nH]c1=O (stereo not drawn) was read as S-ASM inh 2%, Rango release inh 26%, gsp antagonist 18%, gsp agonist 10% and Rango complex inh 3%.
For CCCOc1cccc(-c2cc(C(=O)NNC(=S)NCC)c3ccccc3n2)c1 the results were S-ASM inh -9%, Rango release inh 0%, gsp antagonist 35µM*, gsp agonist -4% and Rango complex inh 0%.
For CSc1ccc(CN2CCC(n3nccc3NC(=O)c3ccccc3C)CC2)cc1 the results were S-ASM inh -1%, Rango release inh -3%, gsp antagonist 3%, gsp agonist 67% and Rango complex inh 0%.
`O=C(c1cc(-c2ccncc2)nc2ccc(Br)cc12)N1CCN(Cc2ccc3c(c2)OCO3)CC1` gave S-ASM inh 0%, Rango release inh 20%, gsp antagonist 28µM*, gsp agonist 19%[15.4 µM] and Rango complex inh -4%.
O=C(c1cc(-c2ccncc2)nc2ccc(Cl)cc12)N1CCN(Cc2ccc3c(c2)OCO3)CC1 was read as S-ASM inh -1%, Rango release inh 29%, gsp antagonist -4%, gsp agonist 25%[15.4 µM] and Rango complex inh 1%.
COc1ccc(N(CC(=O)N/N=C/c2ccc(OC)cc2OC)S(=O)(=O)c2ccccc2)cc1 was read as S-ASM inh -4%, Rango release inh 23%, gsp antagonist 32µM*, gsp agonist -5% and Rango complex inh 2%.

Molecules from the list above that contain an aryl thioether with sulfur outside any ring:
`O=[N+]([O-])c1ccc(-c2cnc(SC(c3ccccc3)c3ccccc3)[nH]2)cc1` gave S-ASM inh -13%, Rango release inh inconclusive, gsp antagonist 35µM*, gsp agonist -6%[15.4 µM] and Rango complex inh inconclusive.
For CSc1ccc(CN2CCC(n3nccc3NC(=O)c3ccccc3C)CC2)cc1 the results were S-ASM inh -1%, Rango release inh -3%, gsp antagonist 3%, gsp agonist 67% and Rango complex inh 0%.

Continuation.
Screening COc1cc(-c2cc3nc4ccccc4n3c(N)c2C#N)cc(OC)c1OC returned S-ASM inh inactive, Rango release inh -2%, gsp antagonist 13%, gsp agonist 28µM* and Rango complex inh inconclusive.
`COc1cc(/C=C2\SC(=S)N(NS(=O)(=O)c3ccccc3)C2=O)ccc1O` gave S-ASM inh -20%, Rango release inh 20%, gsp antagonist -22%, gsp agonist 19% and Rango complex inh inconclusive.
For COc1cc(/C=C2\SC(=S)N(NS(=O)(=O)c3ccc(C)cc3)C2=O)ccc1O the results were S-ASM inh -28%, Rango release inh inconclusive, gsp antagonist inconclusive, gsp agonist -21% and Rango complex inh 41µM*.
For CCOc1cc(/C=C2\SC(=S)N(NS(=O)(=O)c3ccc(C)cc3)C2=O)ccc1O the results were S-ASM inh inconclusive, Rango release inh 17%, gsp antagonist -24%, gsp agonist -5% and Rango complex inh 23µM*.
CCOC(=O)CSc1ccc2nnc(-c3cccnc3)n2n1 was read as S-ASM inh 3%, Rango release inh 15%, gsp antagonist -1%, gsp agonist 10µM* and Rango complex inh -4%.
Screening CCOC(=O)CSc1ccc2nnc(-c3ccccc3)n2n1 returned S-ASM inh 4%, Rango release inh -25%, gsp antagonist 14%, gsp agonist inconclusive and Rango complex inh -1%.
Screening CCc1ccc(C2C(C#N)=C(N)SC(N)=C2C#N)cc1 returned S-ASM inh -4%, Rango release inh inconclusive, gsp antagonist -19%, gsp agonist 40µM* and Rango complex inh inconclusive.
For CCc1ccc(C2C(C#N)=C(N)SC(N)=C2C#N)s1 the results were S-ASM inh -3%, Rango release inh 10µM*, gsp antagonist -9%, gsp agonist inconclusive and Rango complex inh inconclusive.
`CN(C)S(=O)(=O)c1ccc(C(=O)Nc2ccn(C)n2)cc1` gave S-ASM inh 5%, Rango release inh 30%, gsp antagonist 7%, gsp agonist 16%[15.4 µM] and Rango complex inh 0%.
Screening CCOc1ccc(NC(=O)CCc2nnc3ccc(N4CCC5(CC4)OCCO5)nn23)cc1 returned S-ASM inh -1%, Rango release inh -6%, gsp antagonist -7%, gsp agonist inconclusive and Rango complex inh 3%.
COCc1cc(C)nc(SCC(=O)Oc2ccc(Cl)cc2)c1C#N was read as S-ASM inh 232%, Rango release inh 9.2µM*, gsp antagonist 11%, gsp agonist 1%[15.4 µM] and Rango complex inh inconclusive.
`Cc1cccc(N(C)c2cc(C)nc3nc(C)nn23)c1` gave S-ASM inh 0%, Rango release inh -13%, gsp antagonist 2%, gsp agonist inconclusive and Rango complex inh -1%.
Screening O=C(CN1C(=O)NC2(CCCC2)C1=O)Nc1nc(-c2ccccc2)cs1 returned S-ASM inh -7%, Rango release inh -2%, gsp antagonist -13%, gsp agonist -22%[15.4 µM] and Rango complex inh 1%.
`CCOCCCNC(=S)N1CCN(c2nc(-c3ccccc3)cs2)CC1` gave S-ASM inh -6%, Rango release inh -13%, gsp antagonist 50µM*, gsp agonist -59% and Rango complex inh 1%.

3 entries out of the list, ordered by SMILES length, low to high.
CCOC(=O)CSc1ccc2nnc(-c3cccnc3)n2n1 was read as S-ASM inh 3%, Rango release inh 15%, gsp antagonist -1%, gsp agonist 10µM* and Rango complex inh -4%.
COCc1cc(C)nc(SCC(=O)Oc2ccc(Cl)cc2)c1C#N was read as S-ASM inh 232%, Rango release inh 9.2µM*, gsp antagonist 11%, gsp agonist 1%[15.4 µM] and Rango complex inh inconclusive.
`CN(C)S(=O)(=O)c1ccc(C(=O)Nc2ccn(C)n2)cc1` gave S-ASM inh 5%, Rango release inh 30%, gsp antagonist 7%, gsp agonist 16%[15.4 µM] and Rango complex inh 0%.
